System: C1498 leukemia cell targets

## 9-beta-D-arabinosyl-2-fluoroadenine [Fludarabine]
Splenocytes treated 20 μg/ml, 24hr prior to allo-stimulation, E:T 20:1, vs control culture
  Reduction in cytotoxicity of CTL's: 57%
Treated with fludarabine on day 10 of an MLR
  Cytotoxicity of allo-primed CTL's vs non-treated control: not significantly different
